In patent US20230285340A1:

Molecular target: human NEP (Homo sapiens (Human), UniProt P08473)
Experiment: In vitro enzyme inhibition assay at human NEP (Assay 1)
Assay type: biochemical
Conditions: reported as ranges

Compound: O=C(O)C(=O)N[C@H](Cc1ccc(-c2ccccc2)cc1)C[C@@H](CO)C(=O)O [Example 6A, (2S,4S)-5-Biphenyl-4-yl-2-hydroxymethyl-4-(oxalylamino)pentanoic Acid]
- pKi: ≥9
